These results are taken from ChEMBL document CHEMBL5634084, “Design and optimization of selective and potent CDK9 inhibitors with flavonoid scaffold for the treatment of acute myeloid leukemia” (Eur J Med Chem, 2023).

The species entered for assay [1] is Homo sapiens. Put plainly: Selectivity ratio of IC50 for inhibition of CDK6/CyclinD1 (unknown origin) to IC50 for inhibition of CDK9/CyclinT1 (unknown origin).
Assay [2] is filed under the species Homo sapiens. The experiment in a line: Selectivity ratio of IC50 for inhibition of CDK1/CyclinA2 (unknown origin) to IC50 for inhibition of CDK9/CyclinT1 (unknown origin).
The species entered for assay [3] is Homo sapiens. Put plainly: Selectivity ratio of IC50 for inhibition of CDK7/CyclinH/MAT1 (unknown origin) to IC50 for inhibition of CDK9/CyclinT1 (unknown origin).
The species entered for assay [4] is Homo sapiens. Put plainly: Selectivity ratio of IC50 for inhibition of CDK2/CyclinA2 (unknown origin) to IC50 for inhibition of CDK9/CyclinT1 (unknown origin).

Each structure is given as a SMILES string.

Turning to `COc1cc(O)c2c(=O)cc(-c3ccc(N4CCN(C)CC4)cc3)oc2c1C1=CCN(C)CC1`, the Ratio IC50 in the assay filed under Homo sapiens [1], in the assay listed under Homo sapiens [2], in the assay listed under Homo sapiens [3] and in the assay filed under Homo sapiens [4] was 80 throughout.

For `COc1cc(O)c2c(=O)cc(-c3ccc(N4CCN(C)CC4)cc3)oc2c1N1CCNCC1`, the Ratio IC50 worked out at 60 in the assay filed under Homo sapiens [1], 60 in the assay listed under Homo sapiens [2], 60 in the assay filed under Homo sapiens [3] and 40 in the assay filed under Homo sapiens [4].
